# Results from patent publication US10730883B2 (AbbVie Inc., priority 2015, dated 2020).
# Test system: healthy subjects
# Experiment: Study 2-Part 1: safety and tolerability, multiple doses, healthy subjects
# Format: in vivo, human
# Settings: 14 days
smiles,measurement,setting,value
"CC[C@@H]1CN(C(=O)NCC(F)(F)F)C[C@@H]1c1cnc2cnc3[nH]ccc3n12 [Compound 1, (3S,4R)-3-ethyl-4-(3H-imidazo[1,2-a]pyrrolo[2,3-e]pyrazin-8-yl)-N-(2,2,2-trifluoroethyl)pyrrolidine-1-carboxamide]",overall incidence of TEAEs,3 mg BID dose group,25.0%
same,overall incidence of TEAEs,6 mg BID dose group,25.0%
same,overall incidence of TEAEs,12 mg BID dose group,37.5%
